Measured values as given in article PMC4501388 (European journal of medicinal chemistry, 2015).

Assays:
[1] = system: rats bearing intracerebral RG2 gliomas; assay: In vivo biodistribution study, boron determination by ICP-OES; parameters: species or system rat; settings: 100 μg boron i.c. by ALZET pump over 24 h
intracerebral RG2 tumors = assay: In vivo metabolomic HRMS study; parameters: species or system rat; settings: intracerebral RG2 glioma

Boron concentration, L. Brain ([1]; left cerebral hemisphere): 1.3 µg/g and 1.3 ± 0.5 µg/g | Boron concentration, R. Brain ([1]; right cerebral hemisphere): 1.5 µg/g and 2.1 ± 0.9 µg/g | 5′-Monophosphate metabolite formation (intracerebral RG2 tumors; HRMS): monophosphorylated | Di- and triphosphate metabolites (intracerebral RG2 tumors; HRMS positive and negative ion mode): could not be detected
Substance: 3-[5-{2-(2,3-dihydroxyprop-1-yl)-o-carboran-1-yl}pentan-1-yl]thymidine [Compound 2]

Values joined by “and” are separate entries in the source; they are usually repeats but may differ in a detail not shown here. Identical values can stand only once.
